From patent US20230102223A1, “PHARMACEUTICAL COMPOSITIONS WITH ANTIFLAVIVIRAL ACTIVITY” (HEALTH RESEARCH, INC., priority 2016, published 2023)

Test system: DENV2

CN(C)c1ccc2nc3ccc(=[N+](C)C)cc-3sc2c1 [Methylene blue, [7-(dimethylamino)phenothiazin-3-ylidene]-dimethylazanium;chloride]
Therapeutic index (TI) (CC50/EC50): >50
